# How the values were obtained:
# The chains behind the UniProt entries cited, without tags or fusion partners.
# UniProt P35222, whole entry: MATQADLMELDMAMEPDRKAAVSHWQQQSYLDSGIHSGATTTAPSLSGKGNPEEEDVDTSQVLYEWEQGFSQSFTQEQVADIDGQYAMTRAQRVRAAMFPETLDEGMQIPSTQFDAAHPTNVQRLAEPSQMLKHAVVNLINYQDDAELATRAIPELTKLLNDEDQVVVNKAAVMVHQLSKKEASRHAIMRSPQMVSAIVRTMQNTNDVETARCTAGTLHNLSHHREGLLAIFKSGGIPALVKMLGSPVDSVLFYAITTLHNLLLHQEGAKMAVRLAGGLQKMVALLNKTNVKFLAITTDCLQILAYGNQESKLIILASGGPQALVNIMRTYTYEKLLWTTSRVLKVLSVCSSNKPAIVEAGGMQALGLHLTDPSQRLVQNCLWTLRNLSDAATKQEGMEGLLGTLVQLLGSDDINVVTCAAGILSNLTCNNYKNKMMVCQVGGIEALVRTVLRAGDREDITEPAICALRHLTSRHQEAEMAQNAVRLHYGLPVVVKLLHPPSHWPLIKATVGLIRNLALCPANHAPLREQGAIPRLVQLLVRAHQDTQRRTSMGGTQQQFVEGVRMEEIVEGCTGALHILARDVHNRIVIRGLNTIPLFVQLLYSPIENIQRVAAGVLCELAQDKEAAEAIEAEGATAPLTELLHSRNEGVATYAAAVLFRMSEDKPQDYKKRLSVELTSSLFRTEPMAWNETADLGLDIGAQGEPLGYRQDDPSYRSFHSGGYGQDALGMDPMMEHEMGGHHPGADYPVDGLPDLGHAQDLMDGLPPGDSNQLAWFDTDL
# [1] = target: T1, full-length B-Catenin (Uniprot ID P35222) (Homo sapiens, UniProt P35222); assay: biochemical; type: binding; conditions: beta-Catenin FP IC50 (nM), competition fluorescence polarization
# T1 construct: 10 nM full-length B-Catenin (Uniprot ID P35222)
# [2] = target: beta-catenin/TCF4 interaction (Homo sapiens, UniProt P35222); assay: cell-based; set-up: host or cells: HEK293; conditions: NanoBRET Abs IC50 (uM)
Compound,IC50 [1],IC50 [2]
"CC(=O)N1CCC[C@]12CC=CCCCC1(CCCC=CCCCOC(=O)N3CC[C@@]4(C3)NC(=O)[C@H](CCCCn3cc(nn3)C[C@@H](C(N)=O)NC(=O)[C@H](Cc3csc5ccccc35)NC(=O)[C@H](Cc3ccccc3C(F)(F)F)NC4=O)NC(=O)[C@H](Cc3ccccc3)NC(=O)[C@H](C)NC(=O)[C@H](C)NC(=O)[C@H](Cc3cccc(C(=O)O)c3)NC(=O)[C@H](CC(=O)O)NC1=O)NC(=O)[C@H](CC(C)(C)C)NC(=O)[C@H](CC(=O)O)NC2=O (single isomer, unassigned) [I-21, Ac-PL3-Asp-Npg-B5-Asp-3COOHF-Ala-Ala-Phe-TriAzLys*3-PyrS2-2F3MeF-BztA-sAla*3-NH2]",< 50 nM,1.5 to 3 µM
"CC(=O)N1CCC[C@]12CC=CCCCC1(CCCC=CCCCOC(=O)N3CC[C@@]4(C3)NC(=O)[C@H](CCCCNC(=O)CC[C@@H](C(=O)N[C@@H](C)C(N)=O)NC(=O)[C@H](Cc3csc5ccccc35)NC(=O)[C@H](Cc3ccccc3C(F)(F)F)NC4=O)NC(=O)[C@H](Cc3ccccc3)NC(=O)[C@H](C)NC(=O)[C@H](CC(C)(C)C)NC(=O)[C@H](Cc3cccc(C(=O)O)c3)NC(=O)[C@H](CC(=O)O)NC1=O)NC(=O)[C@H](CC(C)(C)C)NC(=O)[C@H](CC(=O)O)NC2=O (single isomer, unassigned) [I-99, Ac-PL3-Asp-Npg-B5-Asp-3COOHF-Npg-Ala-Phe-Lys*3-PyrS2-2F3MeF-BztA-GlnR*3-Ala-NH2]",< 50 nM,> 10 µM

# Further lines, results first:
IC50 [1],IC50 [2],Compound
50 to 200 nM,> 10 µM,"CC(=O)N1CCC[C@]12CC=CCCCC1(CCCC=CCCCOC(=O)N3CC[C@@]4(C3)NC(=O)[C@H](CCCCNC(=O)C[C@@H](C(=O)N[C@@H](C)C(N)=O)NC(=O)[C@H](Cc3csc5ccccc35)NC(=O)[C@H](Cc3ccccc3C(F)(F)F)NC4=O)NC(=O)[C@H](Cc3ccccc3)NC(=O)[C@H](C)NC(=O)[C@H](C)NC(=O)[C@H](Cc3cccc(C(=O)O)c3)NC(=O)[C@H](CC(=O)O)NC1=O)NC(=O)[C@H](CC(C)(C)C)NC(=O)[C@H](CC(=O)O)NC2=O (single isomer, unassigned) [I-58, Ac-PL3-Asp-Npg-B5-Asp-3COOHF-Ala-Ala-Phe-Lys*3-PyrS2-2F3MeF-BztA-AsnR*3-Ala-NH2]"
< 50 nM,1.5 to 3 µM,"CC(=O)N1CCC[C@]12CC=CCCCC1(CCCC=CCCCOC(=O)N3CC[C@@]4(C3)NC(=O)[C@H](CCCCNC(=O)CC[C@@H](C(=O)N[C@@H](C)C(N)=O)NC(=O)[C@H](Cc3csc5ccccc35)NC(=O)[C@H](Cc3ccccc3C(F)(F)F)NC4=O)NC(=O)[C@H](Cc3ccccc3)NC(=O)[C@H](C)NC(=O)C(C)(C)NC(=O)[C@H](Cc3cccc(C(=O)O)c3)NC(=O)[C@H](CC(=O)O)NC1=O)NC(=O)[C@H](CC(C)(C)C)NC(=O)[C@H](CC(=O)O)NC2=O (single isomer, unassigned) [I-68, Ac-PL3-Asp-Npg-B5-Asp-3COOHF-Aib-Ala-Phe-Lys*3-PyrS2-2F3MeF-BztA-GlnR*3-Ala-NH2]"
< 50 nM,1.5 to 3 µM,"CC(=O)N1CCC[C@]12CC=CCCCC1(CCCC=CCCCOC(=O)N3CC[C@@]4(C3)NC(=O)[C@H](CCCCNC(=O)CC[C@@H](C(=O)N[C@@H](C)C(N)=O)NC(=O)[C@H](Cc3csc5ccccc35)NC(=O)[C@H](Cc3ccccc3C(F)(F)F)NC4=O)NC(=O)[C@H](Cc3ccccc3)NC(=O)[C@H](C)NC(=O)[C@H](C)NC(=O)[C@H](Cc3cccc(C(=O)O)c3)NC(=O)[C@H](CC(=O)O)NC1=O)NC(=O)[C@H](CC1CCCCC1)NC(=O)[C@H](CC(=O)O)NC2=O (single isomer, unassigned) [I-97, Ac-PL3-Asp-Cha-B5-Asp-3COOHF-Ala-Ala-Phe-Lys*3-PyrS2-2F3MeF-BztA-GlnR*3-Ala-NH2]"

# Reference: patent publication US20240360179A1, “STAPLED PEPTIDES AND METHODS THEREOF” (FOG PHARMACEUTICALS, INC., priority 2021, published 2024)
